# Lamin A splicing: LMNA splicing modulation; HeLa LMNA splicing GFP/RFP minigene ratio, 48 h; Potency, µM (titrated, usually from 46.1 µM), without a hit: top-dose ratio change, negative = inhibition, most hits filed as inhibitors; 200,000 compounds, 0.01% hits; active = well fitted inhibition curve with a large enough effect in the signal ratio, with a control signal flat, not every such curve was filed as active; inconclusive = small, poorly fitted or top-dose-only effect, or effect the other way, or a change in a side signal; the % refers to the signal ratio; note: potency is the fitted concentration of half-maximal effect; % is set by controls: 0 for no effect and ±100 for the full control effect
#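 S3 HeLa cells stably expressing lamin A-EGFP splicing minigene plus DsRed2, 600 cells/well, 48 h compound exposure at 37C. Laser-scanning cytometry; analysed as GFP (500-530 nm)/RFP (575-640 nm) total intensity ratio; 0.5% DMSO vehicle.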
# miR-21 reporter: raises the signal of a miR-21 reporter | HeLa miR-21 FLuc reporter, luciferase, 48 h | Potency, µM (highest dose often 38.3 µM), without a hit: at the top dose reporter change, positive = more light | 340,000 tested, under 10 active; active = well fitted rising curve with a large enough effect; inconclusive = small, poorly fitted or top-dose-only effect; inactive = no such curve, though single readings can be large or run the other way;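 note: % of control where 0% means no effect; miR-21 action dims this reporter so a rising signal means less miR-21 action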
#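 Using DMEM plus 10% FBS, HeLa miR-21-FLuc cells are incubated with test compounds (final up to about 40uM) for 48 hours; firefly luciferase signal is then imaged following reagent-mediated lysis.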
# ALDH1A1 block: inhibitors of human aldehyde dehydrogenase 1A1 | P00352 | Purified ALDH1A1, NADH fluorescence, propionaldehyde substrate | Potency, µM (series often up to 75.3 µM), for inactives: top-dose activity, negative = inhibition, hits mostly inhibitors | 220,000 compounds, 7.3% hits | AID 1030; active = well fitted inhibition curve with a large enough effect, not every such curve was filed as active; inconclusive = small, poorly fitted or top-dose-only effect, or another doubt; inactive = no such curve, though single readings can be large or run the other way;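 note: potency is the fitted concentration of half-maximal effect; plate controls were no enzyme wells and a reference inhibitor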
# Sfp inh: Sfp phosphopantetheinyl transferase inhibition; 310,000 tested, 3.5% active; Potency, µM, inactives show max response, negative = inhibition, hits mostly inhibitors; AID 1490; Q9F4F7; Biochemical Sfp PPTase activity, qHTS; active = well fitted inhibition curve with a large enough effect; inconclusive = small, poorly fitted or top-dose-only effect, or another doubt; inactive = no such curve, though single readings can be large or run the other way;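 also: the enzyme is Sfp with the accession as filed and its product quenches rhodamine fluorescence; potency is read from the fitted curve at half-maximal effect; 0% = enzyme reaction without inhibitor and -100% = no enzyme wells; top concentration of the series not given in the record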
#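 Step 1, compound plus 15 nM Sfp-PPTase, 15 min, room temperature. Step 2, add rhodamine-CoA (5 uM) and BHQ-2-YbbR (12.5 uM). Step 3, read 525/598 nm fluorescence at 0 and 30 min.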
# G9a inh: blocks human histone lysine methyltransferase G9a. Q96KQ7. G9a H3K9 monomethylation, AlphaScreen, 2 h. Potency, µM (titrated, usually from 102 µM), without a hit: at the highest dose activity, negative = inhibition, hits mostly inhibitors. 350,000 compounds, 8.8% hits. AID 504332; note: potency is the fitted concentration of half-maximal effect; % is set by controls: 0 for no effect and ±100 for the full control effect; nearly all actives have a fitted effect of over 75% in size
#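 Step 1: enzyme (final 20 nM) with compound, 15 min RT. Step 2: substrate peptide 500 nM and SAM 20 uM, 2 h RT. Step 3: anti-H3K9me1 antibody and AlphaScreen beads, 10 min, then plate read.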
# KDM4E inh: inhibitors of human JMJD2E histone demethylase; B2RXH2; JMJD2E catalytic domain, FDH-coupled NADH fluorescence (FDH is formaldehyde dehydrogenase); Potency, µM (doses to about 57.1 µM), for inactives: at the highest dose activity change, negative = inhibition, hits mostly inhibitors; 230,000 compounds, 1.6% hits; active = well fitted inhibition curve with a large enough effect, not every such curve was filed as active; inconclusive = small, poorly fitted or top-dose-only effect, or another doubt; inactive = no such curve, though single readings can be large or run the other way;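 note: potency is the fitted concentration of half-maximal effect; 0% = wells with enzyme and -100% = buffer wells without enzyme; nearly all actives have a fitted effect of over 50% in size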
# * marks the source's active call; other numbers are inactive results; ? = inconclusive; nt = no result; ! = not active in a repeat; [ ] = another dose, or the depositor's remark. Compounds with a hit are over-represented: about 13% of the library has one in this group of screens. Unless noted, calls come from the whole dose curve; as a rule, active = well fitted curve in the direction sought with a large enough effect; inconclusive = small, poorly fitted or top-dose-only effect, or another doubt; inactive = no such curve, though single readings can be large; an effect the other way counts as inactive or inconclusive.
SMILES,Lamin A splicing,miR-21 reporter,ALDH1A1 block,Sfp inh,G9a inh,KDM4E inh
COc1ccc(NC(=O)c2cccs2)cc1,-10%,-51%,-4%,12%,-10%[59 µM],-7%
N#CC(C#N)=C1C=CC=CN1/C(=C\c1ccco1)C(=O)c1ccccc1,?,?,-7%,16µM*,18µM*,14%
N#CC(C#N)=C1C=CC=CN1/C(=C\c1ccco1)C(=O)c1ccc(Br)cc1,?,?,?,8.9µM*,11µM*,-5%
Fc1ccc(-n2ncc3c(NCCCn4ccnc4)ncnc32)cc1,8%[46 µM],-45%,nt,nt,-1%[59 µM],nt
COc1ccc(C)cc1NC(=O)C(=O)NCCc1csc2nc(-c3ccccc3F)nn12,16%[46 µM],0%,nt,nt,7%[59 µM],nt
CC1(C)CC(CCC(=O)NC(=S)Nc2ccccc2Cl)C(=O)O1 (stereo not given),nt,-15%,13µM*,3%,-34%,0%
O=C(CCN1C(=O)c2ccccc2C1=O)NC(=S)Nc1ccccc1Cl,18%,4%,22µM*,0%,?,2%
CC1(C)CC(CC(=O)Nc2ccccc2[N+](=O)[O-])C(=O)O1 (stereo not given),?,-1%,?,-19%,-4%[59 µM],1%
Cc1ccc(-c2noc(CCC(=O)NC3CC3)n2)cc1,nt,-22%,nt,12%,-5%,nt
COc1ccccc1C(=O)Nc1nnc(S(=O)(=O)N2CCCCCC2)s1,-27%[46 µM],-14%,nt,6%,10µM*!,nt
COc1ccccc1C(=O)Nc1nnc(S(=O)(=O)N2CCCCC2)s1,20%[46 µM],-32%,nt,10%,19%,nt
O=C(Nc1nnc(S(=O)(=O)N2CCCCCC2)s1)c1ccccc1F,-9%[46 µM],-30%,nt,27%,11µM*!,nt
Cc1ccccc1C(=O)Nc1nnc(S(=O)(=O)N2CCCCCC2)s1,-12%[46 µM],-4%,nt,21%,14µM*,nt
CC(C)(CC(=O)O)CC(=O)N1CCN(c2nc3cc(Cl)ccc3s2)CC1,nt,-37%,nt,15%,10%,nt
COc1ccc(CN2CCc3c([nH]c4ccccc34)C2)cc1Br,nt,21%,nt,?,?,nt
CCOc1cc(CN2CCc3c([nH]c4ccccc34)C2)ccc1OC,nt,0%,nt,-21%,11µM*,nt
COc1ccc(CN2CCc3c([nH]c4ccccc34)C2)c(OC)c1C,nt,24%,nt,-24%,32µM*,nt
COc1ccc(CN2CCC(CO)(CCOc3ccccc3)CC2)c(OC)c1C,0%[46 µM],-1%,7%,-15%,nt,3%
CC(C)(C(O)c1ccc([N+](=O)[O-])cc1)[N+](=O)[O-] (stereo not given),nt,nt,?,-9%,nt,?
CS(=O)(=O)c1ccc(NC(=O)c2ccc3c(c2)S(=O)(=O)N=C2CCCCCN23)cc1,nt,nt,nt,nt,4%[0.501 µM],nt
NC(=O)COC(=O)c1ccc2c(c1)S(=O)(=O)N=C1CCCCCN12,0%,-14%,8.9µM*,7%,-14%,11%
O=C(Nc1ccccc1)c1cccc(S(=O)(=O)N2CCCCC2)c1,-1%,-1%,?,16%,?,-4%
O=C(CNCc1ccco1)Nc1cccc(S(=O)(=O)N2CCCCC2)c1,nt,4%,nt,-26%,3.5µM*,?
CN(C)S(=O)(=O)c1cccc(NC(=O)c2cccc(S(=O)(=O)N3CCCCC3)c2)c1,nt,nt,nt,nt,50µM*,nt
CC(C)[C@H](NC(N)=O)C(=O)Nc1cccc(S(=O)(=O)N2CCOCC2)c1,2%[46 µM],-1%,?,-22%,35µM*,-8%
O=C(CNc1cccc(S(=O)(=O)N2CCCCC2)c1)Nc1cccc(F)c1,nt,nt,nt,nt,-21%,nt
CSCCC(NC(N)=O)C(=O)Nc1cccc(S(=O)(=O)N2CCOCC2)c1 (stereo not given),-13%[46 µM],1%,9%,15%,-7%,0%
CN(C)c1ccc(CNC(=O)c2ccc3nc(CCc4ccccc4)oc3c2)cc1,6%[46 µM],-20%,nt,nt,-2%[59 µM],nt
COc1ccc(CNc2nc(-c3cccnc3)nc3ccccc23)c(OC)c1,?,nt,-6%,-25%,-25%[0.501 µM],nt
CC(NC(=O)COC(=O)C1CCN(c2ccc(C(F)(F)F)cn2)CC1)c1ccc(F)cc1 (stereo not given),nt,nt,nt,nt,12%[12.7 µM],nt
Cc1c(Cl)cccc1NC(=O)CC(c1cccs1)N1Cc2ccccc2C1=O (stereo not given),nt,?,nt,nt,-17%[59 µM],nt
O=C(Nc1cccc(S(=O)(=O)N2CCCCCC2)c1)c1cc(=O)c2ccccc2o1,-26%[46 µM],5%,11µM*,13%,4%,-27%
O=C(Nc1cccc(S(=O)(=O)N2CCCCCC2)c1)c1ccc2ccccc2n1,?,-44%,1%,-2%,?,-6%
CCCC(C(=O)Nc1cccc(S(=O)(=O)N2CCCC2)c1)c1ccccc1 (stereo not given),nt,nt,nt,nt,16µM*,nt
NS(=O)(=O)c1cccc(NC(=O)c2cc(=O)c3ccccc3o2)c1,nt,-16%,nt,-6%,-9%,nt
O=C(Nc1cccc(S(=O)(=O)N2CCCCC2)c1)c1ccccn1,nt,-7%,?,2%,5.6µM*,2%

# Grouped by structure, those above containing a cyano group.
SMILES,Lamin A splicing,miR-21 reporter,ALDH1A1 block,Sfp inh,G9a inh,KDM4E inh
N#CC(C#N)=C1C=CC=CN1/C(=C\c1ccco1)C(=O)c1ccccc1,?,?,-7%,16µM*,18µM*,14%
N#CC(C#N)=C1C=CC=CN1/C(=C\c1ccco1)C(=O)c1ccc(Br)cc1,?,?,?,8.9µM*,11µM*,-5%

# The list goes on.
SMILES,Lamin A splicing,miR-21 reporter,ALDH1A1 block,Sfp inh,G9a inh,KDM4E inh
O=C(Nc1cccc(S(=O)(=O)N2CCOCC2)c1)c1ccccn1,nt,-12%,nt,5%,25µM*,4%
CCOC(=O)CSC1=Nc2ccccc2C2=NC(CCC(=O)NCc3ccccc3)C(=O)N12 (stereo not given),20%[46 µM],3%,nt,nt,8%[59 µM],nt
O=C(CCSCc1ccccc1F)N1CCN(c2ccc(F)cc2)CC1,-16%[46 µM],0%,nt,nt,3%[59 µM],nt
C/C=C/C=C/[C@H]1Cc2cc(O)cc(O)c2O1,nt,4%,nt,-15%,-2%[12.7 µM],?
CN(C)S(=O)(=O)c1cccc(NC(=O)c2ccc3c(c2)S(=O)(=O)N=C2CCCCCN23)c1,nt,nt,nt,nt,32µM*,nt
Cc1ccc2c(C)c(C(=O)N(Cc3ccc(N(C)C)cc3)Cc3ccco3)oc2c1C,nt,-2%,nt,nt,11µM*,nt
Cc1c(C(=O)N(Cc2cccc(Cl)c2)Cc2ccco2)oc2ccccc12,nt,-1%,nt,nt,34%[59 µM],nt
CCc1ccc2oc(C(=O)N(Cc3ccc(N(C)C)cc3)Cc3ccco3)c(C)c2c1,nt,-5%,nt,nt,10µM*,nt
CCOc1ccc(C(=O)Nc2cccc(-c3ccc(N4CCOCC4)nn3)c2)cc1OCC,nt,nt,nt,nt,45µM*,nt
CN1CCN(c2ccc(-c3cccc(NC(=O)COc4ccc(Cl)cc4)c3)nn2)CC1,nt,nt,nt,nt,50µM*,nt
CCC(CO)Nc1ncnc2c1cnn2-c1ccc(C)cc1 (stereo not given),-16%[46 µM],-12%,nt,nt,13%[59 µM],nt
Cn1nnnc1SCCNCc1ccc(OCc2ccc(Cl)cc2)cc1,nt,-3%,nt,nt,5%[59 µM],nt
COc1ccc2c(c1)nc(SCC(O)c1ccccc1)n2C (stereo not given),nt,-14%,4%,13%,-2%,4%
CCOc1ccc2c(c1)nc(SCC(=O)c1cccs1)n2C,2%,-42%,?,?,25µM*,3%

# Fetched by structure from the entries so far:
SMILES,Lamin A splicing,miR-21 reporter,ALDH1A1 block,Sfp inh,G9a inh,KDM4E inh
CCOC(=O)CSC1=Nc2ccccc2C2=NC(CCC(=O)NCc3ccccc3)C(=O)N12 (stereo not given),20%[46 µM],3%,nt,nt,8%[59 µM],nt
O=C(Nc1cccc(S(=O)(=O)N2CCOCC2)c1)c1ccccn1,nt,-12%,nt,5%,25µM*,4%
Cn1nnnc1SCCNCc1ccc(OCc2ccc(Cl)cc2)cc1,nt,-3%,nt,nt,5%[59 µM],nt

# Screening results (PubChem BioAssay)
